Yeast mating assay 1: variants of the scFv Ab-14

Source: Engelhart et al. 2022 (doi:10.1038/s41597-022-01779-4), MIT Lincoln Laboratory and A-Alpha Bio; data file from the FLAb repository.

Antigen: PDVDLGDISGINAS, a 14-residue peptide of the SARS-CoV-2 spike HR2 region.

Ab-14 is the parent antibody, in scFv form: VH, then a (GGGGS)3 linker, then VL. The heavy chain is unchanged in all variants.
VH: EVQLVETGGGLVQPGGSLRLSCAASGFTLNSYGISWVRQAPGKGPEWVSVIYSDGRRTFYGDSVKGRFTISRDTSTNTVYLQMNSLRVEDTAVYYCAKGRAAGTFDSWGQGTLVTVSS
VL: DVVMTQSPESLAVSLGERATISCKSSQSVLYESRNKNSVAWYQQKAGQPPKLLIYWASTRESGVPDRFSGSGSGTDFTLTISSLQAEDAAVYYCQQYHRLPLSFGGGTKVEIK

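Variants in AAYL50 differ from the parent at up to three CDR positions; double and triple changes were sampled at random. The assay is AlphaSeq: two haploid yeast populations carry antibody and antigen on their surface. Pairs that bind mate more often; barcode pairs of the diploids are counted by sequencing. A regression on co-assayed BCL2-family reference pairs converts the normalised counts of each replicate to an apparent Kd. Each pool was mated in three replicate cultures.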

Substitutions are numbered in sequence along the VL above, starting at 1 (not Kabat). Affinities are written as log10 Kd with Kd in nM; a lower number is a better binder. A pair that was not seen in that replicate is written "nd"; this usually means weak binding, but a binder can also be missed. In this assay the parent's reference entry averaged 0.65; its copy inside this library read 1.68. Background: pairings of library AAYL50 with three empty control strains gave a value in 18% of cases (median 4.19, 5th percentile 2.99). Values in that range, when seen in few replicates, are hard to tell from nonspecific mating. For each scFv, signals with the empty controls are counted beside the result, with their mean in brackets.

changes,log10 Kd (nM) by replicate,control signals
R60I E61W L102C,nd / nd / nd,1 of 9 (4.31)
S33H N35K S103R,nd / nd / nd,0 of 9
S26C Q27L E61F,nd / 2.92 / 4.10,2 of 9 (3.87)
V39E Q95V P101N,nd / 4.24 / nd,5 of 9 (4.70)
K24Y L30D P101M,1.72 / 1.84 / 2.42,0 of 9
R34L A57V Q96R,3.96 / 3.23 / 3.28,2 of 9 (5.36)
K36V T59A E61D,1.92 / 1.92 / 2.09,2 of 9 (4.89)
L30P Y31N N37C,2.28 / 2.55 / 2.14,3 of 9 (4.03)
A40T H98V P101S,5.02 / 4.99 / nd,3 of 9 (4.28)
Q27A S38W T59G,3.33 / nd / nd,0 of 9
S58A T59C L102E,2.63 / 2.22 / 2.83,2 of 9 (5.31)
S28F S62F,nd / nd / 3.27,0 of 9
S25I S58V S103D,0.64 / 0.52 / 0.64,0 of 9
S26Y V39K S103D,nd / nd / nd,3 of 9 (4.38)
K24Y W56M S103V,1.07 / 1.07 / 1.02,1 of 9 (3.36)
S26P Q95S,2.24 / 2.30 / 2.48,0 of 9
L30N T59Q L100I,1.97 / 1.84 / 1.50,1 of 9 (3.87)
S28W A40V,nd / nd / 5.05,3 of 9 (3.35)
S28V A57K S58C,nd / nd / 4.10,0 of 9
S25A A57S T59G,nd / nd / nd,0 of 9
L102E,1.37 / 1.71 / 1.64,3 of 9 (4.80)
R99C,2.63 / nd / nd,0 of 9
V29G W56S,0.32 / 0.62 / 0.54,0 of 9
Q27S R34E Q95T,nd / nd / nd,1 of 9 (3.59)
S28Q L30N H98N,1.56 / 1.81 / 1.73,0 of 9
S28T N37T S38N,2.45 / 2.56 / 2.96,5 of 9 (4.00)
V29C L30A A40K,nd / 4.04 / nd,0 of 9
Q27I N35Y S58M,3.09 / 3.53 / 2.76,2 of 9 (4.50)
S28Q E32Q H98N,1.17 / 1.25 / 1.42,2 of 9 (4.32)
S28M S62R S103F,1.80 / 1.59 / 1.63,3 of 9 (3.08)
K24I S38M Q96F,4.83 / 2.43 / nd,1 of 9 (3.80)
R60F,nd / 4.48 / nd,1 of 9 (3.38)
A40E S58L E61D,4.23 / 3.59 / 5.30,8 of 9 (4.65)
R34E N35E Q95G,nd / nd / nd,0 of 9
A40K S58K P101A,nd / nd / nd,2 of 9 (3.32)
S25N A40K P101C,nd / nd / nd,0 of 9
L30G R60G Q96H,4.10 / nd / nd,0 of 9
S38F Q95W H98T,nd / nd / nd,0 of 9
S28I E61F Q95E,3.24 / nd / nd,0 of 9
S25Y S26A H98D,0.38 / 0.65 / 0.51,2 of 9 (4.87)
V29M S33K R99M,nd / 4.35 / nd,2 of 9 (4.48)
S26E L30T Y97N,nd / nd / nd,0 of 9
L30M V39W S58L,nd / nd / nd,0 of 9
S62C H98E P101W,2.44 / 2.91 / 3.28,4 of 9 (3.84)
S62I Y97C R99G,nd / nd / nd,0 of 9
V29S S38Q R99P,0.63 / 0.84 / 0.85,1 of 9 (4.40)

Excerpt, the first 3 entries:

{"changes": "R60I E61W L102C", "log10 Kd (nM) by replicate": "nd / nd / nd", "control signals": "1 of 9 (4.31)"}
{"changes": "S33H N35K S103R", "log10 Kd (nM) by replicate": "nd / nd / nd", "control signals": "0 of 9"}
{"changes": "S26C Q27L E61F", "log10 Kd (nM) by replicate": "nd / 2.92 / 4.10", "control signals": "2 of 9 (3.87)"}